Laboratory results from PMC3610893, “The CouPSTU and TarPQM Transporters in Rhodopseudomonas palustris: Redundant, Promiscuous Uptake Systems for Lignin-Derived Aromatic Substrates” (PLoS ONE, 2013).

Target: T1, TarP (RPA1782) periplasmic binding-protein (Rhodopseudomonas palustris, UniProt Q6N8X0)
T1 sequence (Q6N8X0 20-336): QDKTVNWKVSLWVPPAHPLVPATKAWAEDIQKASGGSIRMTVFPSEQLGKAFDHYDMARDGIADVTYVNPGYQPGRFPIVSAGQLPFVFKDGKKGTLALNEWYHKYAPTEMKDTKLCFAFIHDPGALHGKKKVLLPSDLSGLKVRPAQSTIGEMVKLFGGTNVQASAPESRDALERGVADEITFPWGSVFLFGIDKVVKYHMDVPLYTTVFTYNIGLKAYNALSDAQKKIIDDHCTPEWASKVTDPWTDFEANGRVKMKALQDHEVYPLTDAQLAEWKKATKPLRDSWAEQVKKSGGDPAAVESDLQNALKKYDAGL
Experiment: Intrinsic tryptophan fluorescence spectroscopy / ligand titrations with TarP (RPA1782)
Conditions: protein 0.2 µM, 10 mM Tris-HCl pH 7.4, 30°C, emission 340 nm; three independent titrations (cinnamate: two single titrations); read-out: K d (nM) TarP (RPA1782), fluorescence titrations
Method: Pure protein was unfolded by dialysis against 1 L of 6 M urea for 16 hours at 4°C. Refolding was effected by dialysis against 2 L of refolding buffer (50 mM Tris-HCl pH 7.2 plus 100 mM NaCl) for 8 hours, the buffer being changed every 2 hours with a final overnight dialysis. Once removed from the dialysis tubing, protein was centrifuged (13,000×g, 10 mins, 4°C) to remove any precipitated misfolded protein.
Changes in the UV fluorescence of intrinsic tryptophan residues in RPA1782 and RPA1789 were measured using a Cary Eclipse fluorimeter (Varian Ltd, UK) in 10 mM Tris-HCl buffer pH 7.4 at 30°C in a 3 ml volume. Excitation of samples was at 280 nm (5 nm slit width) and emission was recorded at 300–400 nm (20 nm slit width). Ligand titrations were performed with 0.2 µM protein with λex 280 nm λem 340 nm using 5 nm excitation and 20 nm emission slit widths respectively. Except where indicated, data from three independent titrations was used to calculate K d values, by fitting to the quadratic equation for tight binding as previously described.

With O=C(O)C(=O)Cc1ccc(O)cc1 [4-HPP, 4-hydroxyphenylpyruvate] the Kd was 42 ± 7 nM.
